## Apparent affinities of Ab-14 variants for a coronavirus HR2 peptide

Values reported by Li et al. 2023, doi:10.1038/s41467-023-39022-2 (FLAb copy).

Antigen: PDVDLGDISGINAS, a 14-residue peptide of the SARS-CoV-2 spike HR2 region.

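Phage display of a naive human antibody library on the peptide gave the parent. Designed CDR sequences, proposed from the first random library and measured here. Several design methods are mixed in this list. The scFvs were displayed on barcoded MATa yeast, the peptide on MATalpha yeast. Mating (16 h, 30 °C) was followed by selection of diploids and sequencing of their barcodes. A regression on co-assayed BCL2-family reference pairs converts the normalised counts of each replicate to an apparent Kd. There are six technical replicates.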

Each scFv is VH, the linker GGGGSGGGGSGGGGS, VL, as in the parent Ab-14, and differs from it in the CDRs of the light chain only.
VH: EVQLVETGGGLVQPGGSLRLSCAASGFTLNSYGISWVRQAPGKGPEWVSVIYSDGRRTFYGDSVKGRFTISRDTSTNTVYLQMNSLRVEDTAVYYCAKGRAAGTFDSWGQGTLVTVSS
VL: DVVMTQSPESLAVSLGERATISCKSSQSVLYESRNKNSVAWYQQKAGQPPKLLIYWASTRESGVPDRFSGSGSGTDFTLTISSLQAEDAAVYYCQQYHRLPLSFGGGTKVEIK

Each variant is given by its three light chain CDRs, as the data file delimits them; those of the parent are KSSQSVLYESRNKNSVA, WASTRES, QQYHRLPLS.
Values are log10 of the apparent Kd in nM; lower means stronger binding.
An entry "ND" has no value in the source: the pair was not observed among the diploids in that replicate. This suggests poor binding but is not conclusive.
The range of this assay differs from that of the first round, and the authors advise against merging the two.
Empty control strains, which show no peptide, gave a signal in 4% of pairings with all light chain designs; the median was 2.64 and 95% of these signals were weaker than 1.59. No background was subtracted.
The authors' rule: three or more of the six replicates give a measured affinity, fewer mean a poor binder.

| CDR-L1 | CDR-L2 | CDR-L3 | replicates, log10 nM |
|---|---|---|---|
| MLTMFANENAGKSNNIA | DTNQLNT | QQYQRLPFM | 0.14 / 0.22 / -0.02 / 0.12 / 0.14 / 0.35 |
| MISQLYNMGTFAINSVA | QASVRNE | QQYDRLPLT | ND / 2.42 / ND / ND / 2.84 / 1.61 |
| ASSQSWLYESRNKNSVA | GASTRED | QQYHRLPLS | -0.03 / 0.56 / 1.15 / 0.73 / 1.57 / -0.20 |
| KLPQSVLYESRMKNSVA | NASQRES | QQYHRLPLS | 0.09 / -0.20 / -0.19 / -0.45 / -0.08 / -0.10 |
| KLSQSVLYESRNKNNVA | EASTRMS | QQYHRLPLS | 0.01 / -0.18 / -0.10 / -0.24 / -0.24 / -0.15 |
| HLSWVVLQESRNKNSVA | NASTRES | QQYHRLPLS | 0.37 / 0.42 / 0.23 / 0.12 / 0.19 / 0.57 |
| WSSQSVLVESSNKNSVA | FASTLES | QQYHRLPLS | ND / 1.44 / 1.71 / 2.25 / ND / ND |
| KSSQSVLYESRNKNSVA | KGSTRES | QQYHRSPLS | ND / ND / ND / ND / ND / ND |
| KVSQSVLYESRMKNSVA | DASTRES | QQYHRLPLE | 0.90 / 0.06 / 0.39 / 1.00 / 0.23 / 0.74 |
| YMSQQEPGDWNQQEAVA | EVTYKEH | QQYYRLPLS | ND / ND / ND / ND / ND / ND |
| RSSQSVLYESRNKNSVA | WASTPES | QQYHRLPLS | ND / ND / ND / ND / ND / ND |
| KSSQSVLYEGQNKNSVA | WASTRES | QFYHRLPDS | ND / ND / ND / ND / ND / ND |
| KSSQSVAMESRNSNSVA | DASTRES | QQYHRLPLS | 0.81 / 0.42 / 0.40 / 0.28 / 0.31 / 0.61 |
| KLQQSELYESRNKNSVA | NASTRES | QDYHRLPLS | 0.10 / -0.06 / 0.07 / -0.14 / -0.06 / 0.01 |
| KISMSYRYESQAKNSIA | EMTTRME | QSYHRLPLS | 0.24 / 0.22 / -0.13 / -0.31 / 0.05 / 0.01 |
| KIGGVTNGISKNKNSVA | EQSTRES | QQYNRLPLS | 0.26 / -0.01 / -0.14 / -0.24 / -0.05 / 0.19 |
| MIGQGLMGESRAKNSIA | QASLRFD | QQYHRLPLI | ND / 1.26 / ND / ND / 2.95 / ND |
| KSGQGVLYESRNWNSVA | GASTREQ | QQYHRLPLS | 0.25 / -0.03 / 0.20 / 0.01 / 0.07 / 0.35 |
| KLSCSVDYWSRNKNSVA | GASTRES | QQYHRLPLS | 0.16 / -0.13 / 0.05 / 0.02 / 0.14 / 0.25 |
| KIYHGVTGTSRKGNSVA | QAETRLD | QQYHRLPLM | ND / 1.17 / 1.15 / 1.42 / 1.03 / 1.08 |
| KYSQSVKFESRNKNSVA | DASTRES | QQYHRLPLS | 0.13 / 0.05 / 0.16 / 0.42 / -0.02 / 0.18 |
| KSSQSFLGEQRNKNSVA | DASTRES | QQYHRLPLS | 0.29 / 0.39 / 0.28 / 0.45 / 0.69 / 0.48 |
| SSSWSVLYESRNKNSVA | WASERES | QSYHRLPLS | ND / ND / ND / ND / ND / ND |
| TISQSVLMTGLNRNSVA | QATERIE | QQYHRLPLS | 0.55 / 0.14 / 0.07 / 0.25 / -0.04 / 0.23 |
| KVSQCMLYESRNANSVA | NASQREE | QQYHRLPLS | 0.22 / 0.11 / 0.19 / 0.06 / 0.11 / 0.18 |
| TISQMTSLFSQSINNVA | EVSMREE | QQYDRLPLM | 0.80 / 1.15 / 0.93 / 0.89 / 1.20 / 1.74 |
| KLGGMTAIESRNLNSVA | QMDTRES | QQYHRLPLS | 0.28 / 0.66 / -0.02 / 0.05 / 0.17 / 0.46 |
| KLSMSYLYESRNKNSVA | NASTRES | QQYHRLPLS | 0.07 / -0.02 / -0.14 / -0.09 / -0.20 / 0.02 |
| MISQLFMYGSRNMNSIA | QAETREK | QQYDRLPLE | 1.35 / 2.55 / 1.94 / 0.69 / 1.73 / 1.50 |
| NLVGRVPDMYDGRNAIA | DMHCRAT | QQYFRLPLA | 2.17 / 1.29 / 1.59 / 0.82 / 1.24 / 1.29 |
| KLSQSVLYQSQNKNNVA | NAQTRMS | QQYHRLPLS | -0.22 / -0.34 / -0.44 / -0.38 / -0.29 / -0.13 |
| KFMGSDEYQMQEQGNVA | QTEQKCK | QQYFRLPLT | 0.15 / 0.07 / 0.30 / 0.20 / 0.30 / 0.42 |
| KSSQSVLRESRNKNSVA | WVSTRES | QQYHRLPLS | ND / ND / ND / ND / ND / ND |
| KLTMIMGLEKVSKNQVA | EMETREK | QQYNRLPLS | 1.34 / 0.63 / 0.63 / 1.17 / 1.16 / 0.86 |

Top 5 of the variants detected in all replicates, tightest first:

| CDR-L1 | CDR-L2 | CDR-L3 | replicates, log10 nM |
|---|---|---|---|
| KLSQSVLYQSQNKNNVA | NAQTRMS | QQYHRLPLS | -0.22 / -0.34 / -0.44 / -0.38 / -0.29 / -0.13 |
| KLPQSVLYESRMKNSVA | NASQRES | QQYHRLPLS | 0.09 / -0.20 / -0.19 / -0.45 / -0.08 / -0.10 |
| KLSQSVLYESRNKNNVA | EASTRMS | QQYHRLPLS | 0.01 / -0.18 / -0.10 / -0.24 / -0.24 / -0.15 |
| KLSMSYLYESRNKNSVA | NASTRES | QQYHRLPLS | 0.07 / -0.02 / -0.14 / -0.09 / -0.20 / 0.02 |
| KLQQSELYESRNKNSVA | NASTRES | QDYHRLPLS | 0.10 / -0.06 / 0.07 / -0.14 / -0.06 / 0.01 |